Measurements from patent publication US11298339B2 (priority 2017, dated 2022).

Protein sequences, listed by entry. Tags and fused reporters are not part of them.
UniProt Q62210, whole entry: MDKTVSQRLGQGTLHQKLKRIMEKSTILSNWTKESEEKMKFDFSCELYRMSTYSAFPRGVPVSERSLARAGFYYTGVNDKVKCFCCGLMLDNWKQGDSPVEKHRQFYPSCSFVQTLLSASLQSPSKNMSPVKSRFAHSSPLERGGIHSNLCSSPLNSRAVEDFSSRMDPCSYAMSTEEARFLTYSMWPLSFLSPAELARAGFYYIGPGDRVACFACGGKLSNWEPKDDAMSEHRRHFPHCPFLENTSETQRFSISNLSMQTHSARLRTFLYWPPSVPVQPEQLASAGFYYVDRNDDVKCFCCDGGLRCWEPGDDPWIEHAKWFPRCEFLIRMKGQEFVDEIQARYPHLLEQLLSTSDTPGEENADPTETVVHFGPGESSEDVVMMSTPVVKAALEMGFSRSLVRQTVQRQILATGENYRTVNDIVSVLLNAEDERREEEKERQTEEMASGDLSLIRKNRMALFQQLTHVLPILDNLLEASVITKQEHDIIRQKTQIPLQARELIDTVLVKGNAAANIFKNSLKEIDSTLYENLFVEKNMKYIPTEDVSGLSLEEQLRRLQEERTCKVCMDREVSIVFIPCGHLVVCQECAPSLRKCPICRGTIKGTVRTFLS
UniProt Q60989, whole entry: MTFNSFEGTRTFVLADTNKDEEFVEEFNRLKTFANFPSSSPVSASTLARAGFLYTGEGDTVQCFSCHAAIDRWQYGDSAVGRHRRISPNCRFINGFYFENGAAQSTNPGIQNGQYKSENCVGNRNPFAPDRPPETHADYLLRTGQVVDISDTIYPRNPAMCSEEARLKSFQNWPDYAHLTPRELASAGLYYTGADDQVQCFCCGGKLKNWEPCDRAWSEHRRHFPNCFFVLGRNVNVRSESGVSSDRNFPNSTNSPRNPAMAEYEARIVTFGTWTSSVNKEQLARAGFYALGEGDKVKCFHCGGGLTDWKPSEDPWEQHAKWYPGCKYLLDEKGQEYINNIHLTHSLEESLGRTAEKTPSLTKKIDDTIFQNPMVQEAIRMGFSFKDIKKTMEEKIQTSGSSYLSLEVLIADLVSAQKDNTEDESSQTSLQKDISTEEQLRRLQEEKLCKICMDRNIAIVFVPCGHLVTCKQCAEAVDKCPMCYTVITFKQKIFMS

Columns and labels:
cIAP1 = cIAP1 (Mus musculus, UniProt Q62210); conditions: 10 mg/kg i.v.; 12, 24, 48 h
XIAP = XIAP (Mus musculus, UniProt Q60989); conditions: 10 mg/kg i.v.; 12, 24, 48 h

## CN[C@@H](C)C(=O)N[C@H]1CN(S(=O)(=O)c2cccc(S(=O)(=O)N3CC[C@H]4CC[C@@H](C(=O)NC(c5ccccc5)c5ccccc5)N4C(=O)[C@@H](NC(=O)[C@H](C)NC)C3)c2)CC[C@H]2CCC(C(=O)NC(c3ccccc3)c3ccccc3)N2C1=O (some centres unmarked) [Compound 1]
cIAP1
  inhibitory effect on cIAP1 in liver tissues (Western blot): inhibitory effect on cIAP1, but was significantly weaker than that on cIAP2
XIAP
  inhibitory effect on XIAP in liver tissues (Western blot): no significant inhibitory effect
